Test results: ChEMBL document CHEMBL1134615, “Structure-based design and synthesis of potent matrix metalloproteinase inhibitors derived from a 6H-1,3,4-thiadiazine scaffold” (J Med Chem, 2001)

Target: T1, Interstitial collagenase (Homo sapiens, UniProt P03956)
T1 sequence (P03956 whole entry): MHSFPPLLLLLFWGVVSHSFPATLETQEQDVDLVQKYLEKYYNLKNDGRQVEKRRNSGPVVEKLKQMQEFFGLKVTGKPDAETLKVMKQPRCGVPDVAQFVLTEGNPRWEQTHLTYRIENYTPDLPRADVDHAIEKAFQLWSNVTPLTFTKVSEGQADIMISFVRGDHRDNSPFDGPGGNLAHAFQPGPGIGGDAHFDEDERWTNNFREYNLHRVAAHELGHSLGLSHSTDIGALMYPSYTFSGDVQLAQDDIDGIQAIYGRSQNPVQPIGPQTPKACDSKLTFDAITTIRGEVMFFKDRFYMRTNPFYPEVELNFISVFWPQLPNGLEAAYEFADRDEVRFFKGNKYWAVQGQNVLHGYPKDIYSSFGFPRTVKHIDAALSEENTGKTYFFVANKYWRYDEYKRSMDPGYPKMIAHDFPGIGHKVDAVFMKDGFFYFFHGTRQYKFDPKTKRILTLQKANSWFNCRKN
Experiment: In vitro inhibitory activity against full-length human matrix metalloprotease-1

## C[C@H](NS(=O)(=O)c1cccs1)C(=O)NC1=NN=C(c2ccc(Cl)cc2)CS1
  Ki: 1.04 µM
